# Antibody variant affinities, Ab-14 light chain, assay B

Antigen: PDVDLGDISGINAS, a 14-residue peptide of the SARS-CoV-2 spike HR2 region.

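Designed CDR sequences, proposed from the first random library and measured here. Their group label is 14L_GP_Gen (GP: Gaussian process model; Gen: genetic algorithm; a sequence that several methods proposed may carry one label only). In AlphaSeq, yeast of one mating type display the scFv and yeast of the other type display the target. Mating (16 h, 30 °C) was followed by selection of diploids and sequencing of their barcodes. A regression on co-assayed BCL2-family reference pairs converts the normalised counts of each replicate to an apparent Kd. There are six technical replicates.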

The variants keep the heavy chain, the linker and the frameworks of Ab-14 (scFv order VH, a 15-residue (Gly4Ser)3 linker, VL).
VH: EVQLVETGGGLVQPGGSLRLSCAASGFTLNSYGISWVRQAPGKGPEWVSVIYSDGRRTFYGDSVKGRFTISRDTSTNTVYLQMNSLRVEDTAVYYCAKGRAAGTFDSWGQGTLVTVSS
VL: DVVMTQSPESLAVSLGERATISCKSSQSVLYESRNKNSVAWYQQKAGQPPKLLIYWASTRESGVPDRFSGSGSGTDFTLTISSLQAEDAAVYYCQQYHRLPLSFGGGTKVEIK

Substitutions are numbered in sequence along the VL above, starting at 1 (not Kabat).
The read-out is the apparent dissociation constant on a log10 scale (nM): the lower, the stronger.
Empty control strains, which show no peptide, gave a signal in 4% of pairings with all light chain designs; the median was 2.64 and 95% of these signals were weaker than 1.59. No background was subtracted. For each scFv, signals with the empty controls are counted beside the result.
The authors averaged sequences with at least three values out of six and counted those with two or fewer as poor binders.
The range of this assay differs from that of the first round, and the authors advise against merging the two.
The parent sequence was in this pool as ten entries: three were never detected, three once, and four in most replicates, with averages from 0.34 to 2.37.

With S25L S26E V29W W56N T59Q E61M the result was 0.40, 0.47, 0.34, 0.40, 0.39, 0.47 (controls 3 of 18).
With S25L V29F W56D E61L the result was -0.19, -0.31, -0.42, -0.54, -0.39, -0.24 (controls 0 of 18).
With S25L S26M W56E E61M the result was 0.60, 1.13, 0.71, 0.95, 1.02, 1.03 (controls 0 of 18).
With S25L S26E V29W W56H T59Q the result was 0.24, 0.34, 0.27, 0.11, 0.13, 0.24 (controls 1 of 18).
With S25L S26P N35Q W56N T59Q the result was -0.25, -0.35, -0.40, -0.68, -0.44, -0.33 (controls 1 of 18).
With S25L Q27G V29Q W56G the result was -0.21, -0.13, -0.13, -0.34, -0.26, -0.08 (controls 4 of 18).
With S25L S26Q L30P W56N S62V the result was 0.06, -0.02, -0.06, -0.08, -0.01, 0.06 (controls 0 of 18).
With S25V V29M W56N T59Q the result was -0.08, -0.08, -0.10, -0.35, -0.20, -0.11 (controls 1 of 18).
With S25L S26Q L30P W56G the result was -0.36, -0.44, -0.53, -0.52, -0.48, -0.14 (controls 1 of 18).
With S25L V29T W56D E61L the result was 0.04, -0.58, -0.29, -0.34, -0.43, -0.34 (controls 0 of 18).
With S25V S26Y W56N T59Q the result was -0.10, -0.12, -0.14, -0.29, -0.16, 0.00 (controls 3 of 18).
With S25L S26P W56N the result was 0.35, 0.09, 0.10, 0.03, 0.20, 0.28 (controls 0 of 18).
With S25L S26Q W56N E61L S62M the result was 0.06, 0.15, -0.12, -0.20, 0.13, 0.20 (controls 1 of 18).
With S25L V29H W56N E61L S62M the result was 0.20, 0.38, 0.29, 0.49, 0.62, 0.35 (controls 0 of 18).
With S25L S26P V29Q W56G the result was -0.12, -0.17, -0.18, -0.38, -0.35, -0.17 (controls 0 of 18).
With S25L S26P V29G W56N T59Q the result was 0.62, -0.48, 0.00, -0.18, -0.77, 0.37 (controls 0 of 18).
With S25L S26Y V29Q N35M W56N T59Q the result was 0.35, 0.17, 0.14, 0.13, 0.34, 0.22 (controls 2 of 18).
With S25L S38A W56E S62Q the result was 0.20, 0.11, -0.05, -0.04, 0.15, 0.24 (controls 2 of 18).
With S25L V29M W56N Q96C the result was 0.49, 0.35, 0.53, 0.29, 0.79, 0.82 (controls 3 of 18).
With S25L V29D W56E T59Q S62Q the result was 0.24, -0.16, -0.03, -0.29, 0.00, 0.13 (controls 0 of 18).
With S25V S38N W56E the result was -0.32, -0.12, -0.38, -0.28, -0.19, -0.23 (controls 3 of 18).
With S25L V29D S33Q W56N the result was 0.25, 0.15, 0.12, 0.24, 0.15, 0.14 (controls 0 of 18).
With S25L S26P V29M L30E W56N the result was -0.09, -0.19, -0.22, -0.33, -0.34, -0.10 (controls 0 of 18).
With S25L W56E E61M S62Q the result was -0.12, -0.30, -0.27, -0.35, -0.35, -0.19 (controls 1 of 18).
With K24H S25L V29W W56N the result was -0.33, -0.43, -0.26, -0.78, -0.31, -0.39 (controls 0 of 18).
With S25L S33D S38N W56N T59Q the result was 0.24, -0.17, -0.10, 1.00, 0.01, 0.09 (controls 0 of 18).
With S25L V29E W56S E61S the result was 0.42, 0.14, 0.82, -0.01, 0.24, 1.24 (controls 0 of 18).
With S25L S26Q V29E W56S T59Q E61L the result was 0.20, -0.08, -0.13, -0.26, -0.07, 0.21 (controls 1 of 18).
With S25M V29W S38N W56D T59Q the result was -0.53, -0.60, -0.60, -0.91, -0.67, -0.58 (controls 0 of 18).
With S25L L30E W56N T59Q the result was -0.03, -0.18, -0.10, -0.29, -0.16, 0.06 (controls 2 of 18).
With S25L S26M W56D T59Q the result was 0.17, -0.07, 0.01, -0.28, -0.20, -0.02 (controls 1 of 18).
With S25L V29Q K36C W56N the result was 0.74, 0.61, 0.10, 0.37, 0.22, 0.61 (controls 0 of 18).
With S25V S26Q V29Q L30P W56N the result was -0.18, -0.29, -0.75, -0.86, 0.00, 0.10 (controls 0 of 18).
With S25L V29W W56N T59Q E61L the result was -0.11, -0.21, -0.26, -0.20, -0.65, -0.06 (controls 2 of 18).

From the AlphaSeq antibody data of Li et al. 2023 (doi:10.1038/s41467-023-39022-2), copy in the FLAb collection.